# Assay: 1-Octanol-phosphate buffer partition coefficient, log P of the compound at pH 7.4 after 30 mins by shake-flask method
# Assay type: physicochemical
# Summary of the method: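 Shake-flask: about 0.01–0.1 mg/mL compound shaken in 1-octanol and 50 mM phosphate buffer (pH 7.4) for 30 min at room temperature. Equal amounts of each phase quantified by HPLC UV absorbance (C18, isocratic ethanol:water). Triplicate, mean ± SD.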
smiles,measurement,value
O=[N+]([O-])c1nccn1CC(O)CF (stereo unspecified) [FLUOROMISONIDAZOLE],logD at 0.5 h,-0.33
